Assay [1] concerns the target T1, hMAO-B (Homo sapiens, UniProt P27338).
T1 construct: purchased Sigma-Aldrich
Particulars: read-out: hMAO-B inhibitory activity; cited from earlier work.

By UniProt entry, the sequences of proteins in these tests, tags left out. Residues count along the entry.
UniProt P27338, whole entry: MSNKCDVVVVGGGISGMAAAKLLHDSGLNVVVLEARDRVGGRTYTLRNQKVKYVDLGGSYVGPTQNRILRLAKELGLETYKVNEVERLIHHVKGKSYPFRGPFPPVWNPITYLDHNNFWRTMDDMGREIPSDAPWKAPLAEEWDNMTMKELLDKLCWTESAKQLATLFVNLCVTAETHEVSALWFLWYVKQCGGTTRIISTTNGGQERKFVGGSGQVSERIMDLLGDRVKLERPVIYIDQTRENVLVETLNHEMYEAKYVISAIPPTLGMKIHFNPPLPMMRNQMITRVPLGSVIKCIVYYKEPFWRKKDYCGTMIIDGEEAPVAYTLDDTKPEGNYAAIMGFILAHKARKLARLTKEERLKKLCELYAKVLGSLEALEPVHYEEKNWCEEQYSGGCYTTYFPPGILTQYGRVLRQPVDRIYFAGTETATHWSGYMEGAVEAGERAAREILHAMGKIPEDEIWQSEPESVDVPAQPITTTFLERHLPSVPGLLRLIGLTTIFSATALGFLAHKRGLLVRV
UniProt P81908, whole entry: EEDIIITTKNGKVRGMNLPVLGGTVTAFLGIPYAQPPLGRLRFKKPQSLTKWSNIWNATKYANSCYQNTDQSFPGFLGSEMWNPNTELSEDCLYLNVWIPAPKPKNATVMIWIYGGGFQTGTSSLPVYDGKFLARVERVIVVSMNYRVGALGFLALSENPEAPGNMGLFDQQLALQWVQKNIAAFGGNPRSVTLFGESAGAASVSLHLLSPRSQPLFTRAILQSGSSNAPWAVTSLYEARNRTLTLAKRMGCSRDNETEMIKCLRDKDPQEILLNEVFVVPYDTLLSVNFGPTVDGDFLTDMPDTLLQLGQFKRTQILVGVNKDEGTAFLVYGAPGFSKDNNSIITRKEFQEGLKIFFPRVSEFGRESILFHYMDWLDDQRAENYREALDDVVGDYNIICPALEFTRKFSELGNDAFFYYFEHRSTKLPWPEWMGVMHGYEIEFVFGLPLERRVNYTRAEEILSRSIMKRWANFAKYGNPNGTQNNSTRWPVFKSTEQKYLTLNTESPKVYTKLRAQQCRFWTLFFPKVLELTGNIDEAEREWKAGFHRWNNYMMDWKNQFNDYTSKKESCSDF
UniProt O42275, 24-633: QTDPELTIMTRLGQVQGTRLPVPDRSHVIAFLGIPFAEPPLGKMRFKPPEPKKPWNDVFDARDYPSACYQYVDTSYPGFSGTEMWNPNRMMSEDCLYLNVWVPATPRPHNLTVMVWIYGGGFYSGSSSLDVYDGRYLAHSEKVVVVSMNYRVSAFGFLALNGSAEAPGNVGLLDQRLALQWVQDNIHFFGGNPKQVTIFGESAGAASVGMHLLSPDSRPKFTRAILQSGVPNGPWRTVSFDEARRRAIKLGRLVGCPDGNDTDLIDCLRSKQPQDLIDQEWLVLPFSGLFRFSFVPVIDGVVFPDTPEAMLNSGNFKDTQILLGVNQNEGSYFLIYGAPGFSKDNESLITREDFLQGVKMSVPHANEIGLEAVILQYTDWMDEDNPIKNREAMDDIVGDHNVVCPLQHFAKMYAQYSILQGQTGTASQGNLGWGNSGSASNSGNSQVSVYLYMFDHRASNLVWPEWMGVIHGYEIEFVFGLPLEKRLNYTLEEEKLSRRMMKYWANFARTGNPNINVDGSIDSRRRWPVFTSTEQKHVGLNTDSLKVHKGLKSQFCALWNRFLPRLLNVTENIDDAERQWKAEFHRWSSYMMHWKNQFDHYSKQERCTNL

A further assay addresses T2, BChE (Equus caballus, UniProt P81908).
T2 construct: BChE from equine serum; purchased Sigma-Aldrich; host or cells: equine serum
Briefly: BChE inhibition (Ellman method). The class given is biochemical, equine. Particulars: read-out: Residual Activity at 10 µM (%) BChE. As to the method:
(§1) All other chemicals were of reagent grade.
(§2) hMAO-A and -B activities were determined using a continuous spectrophotometric method, as described previously. […] AChE and BChE activities were assayed as described by Ellman et al., with slight modification. Reactions were performed using AChE and BChE in the 0.5 mL reaction mixtures including 0.5 mM substrate (ATCI and BTCI, respectively) and color reagent (DTNB). […] Reaction rates are expressed as changes in absorbance per min.. Inhibitory activities of AChE and BChE were measured after preincubating enzyme with inhibitors for 15 min before adding DTNB and each substrate. […]
For orientation: DTNB colorimetry detects thiols as they appear.

In assay [2] the target is T1, hMAO-B. The format is biochemical. Particulars: hMAO-B selectivity: IC50 of hMAO-A divided by IC50 of hMAO-B. As to the method: as §1, §2
In the next assay the target is T3, AChE (Electrophorus electricus, UniProt O42275).
T3 construct: purchased Sigma-Aldrich
Briefly: AChE inhibition (Ellman method). The class given is biochemical. As to conditions: read-out: Residual Activity at 10 µM (%) AChE. As to the method:
as §1, §2

`COc1ccc(-c2cc(=O)c3c(O)cc(O)cc3o2)cc1` [acacetin]: on hMAO-B [1], the IC50 was 170 nM.
In the case of `COc1cc([C@H]2OC[C@H]3[C@@H]2CO[C@@H]3c2cc(OC)c(O)c(OC)c2)cc(OC)c1O` [Compound 5, (+)-syringaresinol], the remaining activity at 10 µM on BChE came to 99.41 ± 0.83%; on AChE it was 84.49 ± 0.75%. For the same compound, the SI at hMAO-B [2] is reported as more than 1.64.

(Values after publication PMC9822396 (Molecules, 2022).)
